6 molecules from patent US20260028365A1 (BIOGEN MA INC., priority 2022, published 2026) can be followed below.

Amino acid sequences for entries named in this document (tags omitted). Residues count along the entry.
UniProt P29597, whole entry: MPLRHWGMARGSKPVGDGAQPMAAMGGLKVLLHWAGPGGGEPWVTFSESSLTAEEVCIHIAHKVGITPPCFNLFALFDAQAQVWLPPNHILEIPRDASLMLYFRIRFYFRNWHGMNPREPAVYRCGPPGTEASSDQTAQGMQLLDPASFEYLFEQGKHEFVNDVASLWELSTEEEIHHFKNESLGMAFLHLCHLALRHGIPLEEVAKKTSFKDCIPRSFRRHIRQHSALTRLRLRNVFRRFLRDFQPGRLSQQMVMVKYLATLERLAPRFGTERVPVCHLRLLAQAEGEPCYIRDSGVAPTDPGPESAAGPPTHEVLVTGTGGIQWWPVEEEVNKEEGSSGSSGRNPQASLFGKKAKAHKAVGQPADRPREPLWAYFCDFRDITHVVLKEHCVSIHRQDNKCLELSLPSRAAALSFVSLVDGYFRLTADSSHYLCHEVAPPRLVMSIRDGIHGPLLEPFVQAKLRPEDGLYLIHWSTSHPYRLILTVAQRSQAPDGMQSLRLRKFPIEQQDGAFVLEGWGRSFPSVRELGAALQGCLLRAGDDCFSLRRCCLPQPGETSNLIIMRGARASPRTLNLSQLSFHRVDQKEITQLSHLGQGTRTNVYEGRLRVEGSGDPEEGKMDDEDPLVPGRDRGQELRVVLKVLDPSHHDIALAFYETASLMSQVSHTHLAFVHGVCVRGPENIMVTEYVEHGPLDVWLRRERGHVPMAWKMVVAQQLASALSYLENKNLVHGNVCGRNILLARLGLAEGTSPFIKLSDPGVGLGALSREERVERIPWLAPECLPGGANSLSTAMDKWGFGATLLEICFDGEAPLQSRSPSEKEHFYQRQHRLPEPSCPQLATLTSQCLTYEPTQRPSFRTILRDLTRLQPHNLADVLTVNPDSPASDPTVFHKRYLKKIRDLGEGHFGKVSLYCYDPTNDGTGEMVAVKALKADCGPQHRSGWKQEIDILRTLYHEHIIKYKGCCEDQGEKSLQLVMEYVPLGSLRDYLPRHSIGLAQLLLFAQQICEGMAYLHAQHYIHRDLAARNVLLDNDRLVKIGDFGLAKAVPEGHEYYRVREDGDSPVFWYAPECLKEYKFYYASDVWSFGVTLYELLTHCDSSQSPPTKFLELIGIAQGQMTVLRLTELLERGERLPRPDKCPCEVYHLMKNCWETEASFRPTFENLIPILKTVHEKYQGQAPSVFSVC
UniProt P29597, 575-876 limits assumed: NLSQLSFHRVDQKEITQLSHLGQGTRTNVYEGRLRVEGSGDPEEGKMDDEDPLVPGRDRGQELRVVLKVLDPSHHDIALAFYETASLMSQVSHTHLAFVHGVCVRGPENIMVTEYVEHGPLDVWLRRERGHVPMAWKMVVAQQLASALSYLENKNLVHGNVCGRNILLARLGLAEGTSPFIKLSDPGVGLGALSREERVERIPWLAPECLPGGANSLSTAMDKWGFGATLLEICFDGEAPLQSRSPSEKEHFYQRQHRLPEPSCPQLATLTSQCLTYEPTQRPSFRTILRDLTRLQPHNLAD
UniProt P23458, whole entry: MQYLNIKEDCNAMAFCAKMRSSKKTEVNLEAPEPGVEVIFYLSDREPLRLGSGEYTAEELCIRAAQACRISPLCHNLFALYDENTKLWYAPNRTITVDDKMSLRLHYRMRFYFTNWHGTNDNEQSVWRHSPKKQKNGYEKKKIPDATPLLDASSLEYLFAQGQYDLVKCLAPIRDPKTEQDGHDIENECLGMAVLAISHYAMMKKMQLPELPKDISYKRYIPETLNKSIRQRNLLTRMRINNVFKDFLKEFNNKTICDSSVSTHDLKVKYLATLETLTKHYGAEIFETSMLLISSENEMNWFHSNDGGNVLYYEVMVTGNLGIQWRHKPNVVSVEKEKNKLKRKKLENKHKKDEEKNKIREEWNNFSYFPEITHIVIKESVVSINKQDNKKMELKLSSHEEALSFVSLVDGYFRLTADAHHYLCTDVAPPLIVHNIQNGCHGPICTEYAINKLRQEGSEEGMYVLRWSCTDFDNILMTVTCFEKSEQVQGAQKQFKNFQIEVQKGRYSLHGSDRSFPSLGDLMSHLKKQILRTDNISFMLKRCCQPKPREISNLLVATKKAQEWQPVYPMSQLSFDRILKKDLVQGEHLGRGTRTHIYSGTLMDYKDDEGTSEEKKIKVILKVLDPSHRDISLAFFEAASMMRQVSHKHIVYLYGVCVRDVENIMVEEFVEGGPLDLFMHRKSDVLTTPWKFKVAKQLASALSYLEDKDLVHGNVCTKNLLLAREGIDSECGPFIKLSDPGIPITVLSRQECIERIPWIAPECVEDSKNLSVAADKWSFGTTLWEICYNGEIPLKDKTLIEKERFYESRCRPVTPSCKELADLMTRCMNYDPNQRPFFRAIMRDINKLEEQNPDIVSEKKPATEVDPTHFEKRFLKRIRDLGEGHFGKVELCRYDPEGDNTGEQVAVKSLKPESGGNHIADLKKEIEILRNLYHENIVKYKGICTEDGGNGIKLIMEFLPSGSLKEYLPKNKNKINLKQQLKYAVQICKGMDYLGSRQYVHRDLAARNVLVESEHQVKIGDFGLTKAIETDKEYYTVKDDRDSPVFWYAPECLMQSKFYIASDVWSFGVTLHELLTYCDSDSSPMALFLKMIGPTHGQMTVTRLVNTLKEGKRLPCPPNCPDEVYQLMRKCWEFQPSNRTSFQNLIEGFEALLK

The target of experiment [1] is JH2 domain of human Tyk2 (Homo sapiens (Human), UniProt P29597). Briefly: JH2 Biochemical Assay (TR-FRET probe displacement). To be noted: read-out: TYK2-JH2 IC50. As for the experimental part: The inhibitory potency of compounds of the disclosure against the kinase activity of recombinantly generated JH2 domain of human Tyk2 was evaluated in a plate-based assay using a TR-FRET assay platform. Briefly, 2 nM of recombinant JH2 domain [10×His-tagged TYK2 JH2 domain (amino acid 575-876)] was combined with 2 nM probe ((S)-6-amino-9-(2-carboxy-4-((1-(3-(8-methyl-5-(methylamino)-8H-imidazo[4,5-d]thiazolo[5,4-b]pyridin-2-yl)phenyl)ethyl)carbamoyl)phenyl)-3-iminio-5-sulfo-3H-xanthene-4-sulfonate), 0.1 nM Tb-labeled anti-His antibody, and compounds of disclosure for 60 minutes. Compounds are tested at either 10 μM or 1 μM top concentration, 10 points of 3-fold dilution. The TR-FRET signal inversely correlates to the amount of probe displaced by compounds and signal was calculated by taking the ratio of fluorescence at 520 nm and 495 nm. The data was normalized and the percent activity versus log concentration of compound was fitted with a 4-parameter logistic model to generate IC50 curves.
For orientation: Time-resolved FRET reads energy transfer from a long-lived donor to a nearby acceptor.

For experiment [2], the target named is Tyk2 (Homo sapiens (Human), UniProt P29597). Put plainly: pSTAT4 Cell Assay (MSD, NK92 cells). As for the experimental part: The inhibitory potency of compounds of the disclosure against the Tyk2 kinase activity on STAT4 was evaluated using an MSD-platform plate-based assay format. NK92 cells natively expressing STAT4 and Tyk2 were serum-starved to reduce background phosphorylation levels, then cells were treated compounds for 1 hr with a 10-point four-fold dilution series starting at 10 μM. Cells were then stimulated with 30 ng/mL […] for 15 minutes. […] The data were normalized and the percent activity versus log concentration of compound were fitted with a 4-parameter logistic model to generate to generate IC50 curves.

The target in experiment [3] is JAK1 (Homo sapiens (Human), UniProt P23458). Briefly: pSTAT3 Cell Assay (MSD, TF1 cells). To be noted: read-out: JAK1, IL-6 stimulated. The protocol:
The inhibitory potency of compounds of the disclosure against the JAK1 kinase activity on STAT3 was evaluated using an MSD-platform plate-based assay format. TF1 cells natively expressing STAT3 and JAK1 were serum-starved to reduce background phosphorylation levels, then cells were treated with compounds of the disclosure for 1 hour with a 10-point four-fold dilution series starting at 10 μM. Cells were then stimulated with 30 ng/mL interleukin 6 (IL-6) for 15 minutes. Cells were lysed and pSTAT3 levels were quantitated using an MSD plate-based assay with anti-STAT3 antibodies. The data were normalized and the percent activity versus log concentration of compound was fitted with a 4-parameter logistic model to generate IC50 curves.

The mark [4] stands for this setting: TR-FRET probe displacement, JH2 domain.
Setting [5] is: JH2 domain of human Tyk2, TR-FRET probe displacement.

Like-named read-outs stand apart in the source and are kept apart here. Bounds are passed on as bounds.

In the case of `CCc1cc(Nc2cc(NC(C)=O)ncc2-c2ncc(C#N)cn2)nc(C(C)(F)F)n1`, the IC50 in experiment [1] (setting [4]) was below 0.01 µM; in experiment [2] (read-out: TYK2), 0.01 to 0.1 µM.

Regarding `CCc1cc(Nc2cc(NC(C)=O)ncc2-c2ccnc(CN3CC4CC(C3)O4)n2)nc(C(C)(F)F)n1`, the IC50 in experiment [2] (read-out: TYK2) is above 1 µM.

Regarding `CC(=O)Nc1cc(Nc2cc(C)nc(C(C)(F)F)n2)c(-c2cnn(C3CCC3)c2)cn1`, the IC50 was 0.01 to 0.1 µM in experiment [1] (setting [5]) and above 1 µM in experiment [2] (read-out: TYK2, MSD).

Regarding `CC(=O)Nc1cc(Nc2ccnc(C(C)(F)F)n2)c(-c2ccc(N3CC4(COC4)C3)nn2)cn1`, the IC50 in experiment [1] (setting [4]) and in experiment [2] (read-out: TYK2) was below 0.01 µM each time.

On to `COc1cccc(COc2cnc(NC(C)=O)cc2Nc2cc(C)nc(C(C)(F)F)n2)c1`, for which the IC50 in experiment [1] (setting [5]) is below 0.01 µM; in experiment [2] (read-out: TYK2, MSD) it was 0.1 to 1 µM.

In the case of `CC(=O)Nc1cc(Nc2cc(C)nc(C34COC(C3)C4)n2)c(-c2ccnc(C)n2)cn1`, the IC50 in experiment [1] (setting [4]) is below 0.01 µM; in experiment [2] (read-out: TYK2) it was 0.01 to 0.1 µM; in experiment [3] it was above 1 µM.
